Test results: US10201586B2 (dated 2019)

Test system: thrombin generation in FVIII- or FIX-deficient or FVIII-inhibited plasma
Experiment: plasma-based thrombin generation assay (calibrated automated thrombography)
Assay type: biochemical, human

CC(=O)N[C@@H](Cc1ccccc1)C(=O)N[C@@H](CCC(N)=O)C(=O)N[C@@H](CO)C(=O)N[C@@H](CCCCN)C(=O)N(C)CC(=O)N[C@@H](CC(N)=O)C(=O)N[C@H](C(=O)N[C@@H](Cc1ccccc1)C(=O)N[C@H](C(=O)N[C@@H](Cc1ccccc1)C(=O)NCC(=O)N[C@@H](Cc1ccc(O)cc1)C(=O)N[C@@H](Cc1ccccc1)C(=O)N[C@@H](CCC(=O)O)C(=O)N[C@@H](CCCNC(=N)N)C(=O)N[C@@H](CC(C)C)C(=O)N[C@@H](CCCNC(=N)N)C(=O)N[C@@H](C)C(=O)N[C@@H](CCCCN)C(=O)N[C@@H](CC(C)C)C(N)=O)C(C)C)C(C)C
FVIII-equivalent activity (mU/ml) in Hem A plasma @ 1 μM peptide: 372 mU/ml
